{"sequences": {"note": "Amino acid sequences for entries named in this document (tags omitted). A change or cut given only in a name is not applied to a line headed by its entry.", "UniProt P35414": "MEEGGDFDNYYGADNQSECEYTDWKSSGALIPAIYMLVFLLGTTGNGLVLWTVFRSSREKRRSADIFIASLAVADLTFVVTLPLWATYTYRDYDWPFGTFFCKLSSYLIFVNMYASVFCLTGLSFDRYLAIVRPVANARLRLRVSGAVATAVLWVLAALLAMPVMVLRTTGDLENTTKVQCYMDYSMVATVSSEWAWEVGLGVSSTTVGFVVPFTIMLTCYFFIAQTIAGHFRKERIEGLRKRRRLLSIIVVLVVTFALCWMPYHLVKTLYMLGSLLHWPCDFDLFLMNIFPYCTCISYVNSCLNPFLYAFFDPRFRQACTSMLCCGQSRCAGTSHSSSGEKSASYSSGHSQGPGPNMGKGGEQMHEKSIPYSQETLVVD"}, "source": "patent US9845310B2", "about": "(priority 2015, dated 2017)", "key": {"[1]": {"target": "T1, APJ (Homo sapiens (Human), UniProt P35414)", "test": "[35S]GTPγS binding assay on membranes from CHO cells stably expressing human APJ receptor", "format": "biochemical", "conditions": "Activity hAPJ SPA EC50 IP (μM)"}, "[2]": {"tested_on": "naive Sprague Dawley rat hearts"}, "[3]": {"tested_on": "heart failure rat model", "format": "in vivo", "experimental": "Male Lewis rats (Charles River, USA) at 2-3 months of age were used for the study. […] APJ agonists were administered dose dependently acutely for a period of 30 min."}, "[4]": {"target": "T1, APJ", "conditions": "fold higher than apelin-36; cited from earlier work"}, "[5]": {"target": "T1, APJ", "conditions": "2003 study, Medhurst et al.; cited from earlier work"}, "[6]": {"target": "human APJ receptor expressed in the CHO cell line (Homo sapiens (Human), UniProt P35414)", "conditions": "different concentrations of AngII with fixed concentration of pyr apelin-13; human APJ receptor expressed alone in CHO cells", "experimental": "(§1) The function of the inositol phosphate accumulation (IP1) was measured by Time-resolved fluorescence resonance energy (TR-FRET) at 620 nm and 665 nm respectively."}, "[7]": {"target": "human APJ-AT1R (angiotensin Type 1) double stable CHO cell line (Homo sapiens (Human), UniProt P30556+P35414)", "conditions": "different concentrations of AngII with fixed concentration of pyr apelin-13; human APJ-AT1R double stable CHO cells", "experimental": "as §1"}}, "note": "Like-named read-outs stand apart in the source and are kept apart here."}
{"molecule": "COc1cccc(OC)c1-n1c(NS(=O)(=O)[C@@H](C)[C@@H](O)c2ncc(C)cn2)nnc1-c1cncc(C)c1", "note": "(single isomer, unassigned) [Example 748.0]", "values": [{"measurement": "EC50", "setting": "[1]", "result": 0.0055, "unit": "µM"}]}
{"molecule": "COc1cccc(OC)c1-n1c(NS(=O)(=O)[C@@H](C)[C@H](OC)c2ncc(C)cn2)nnc1-c1cccnc1", "note": "[Example 173.0, (1R,2S)-N-(4-(2,6-dimethoxyphenyl)-5-(pyridin-3-yl)-4H-1,2,4-triazol-3-yl)-1-methoxy-1-(5-methylpyrimidin-2-yl)propane-2-sulfonamide]", "values": [{"measurement": "Isolated Heart Assay dP/dtmax(%)", "setting": "[2]", "result": 39, "unit": "%"}, {"measurement": "Isolated Heart Assay dP/dtmin(%)", "setting": "[2]", "result": 41.7, "unit": "%"}, {"measurement": "MI Rat Model dP/dtmax(%)", "setting": "[3]; rat, in vivo", "result": 14, "unit": "%"}]}
{"molecule": "COc1cccc(OC)c1-n1c(NS(=O)(=O)[C@@H](C)[C@H](O)c2ncc(C)cn2)nnc1-c1cncc(C)c1", "note": "[Example 371.0, (1R,2S)-N-(4-(2,6-dimethoxyphenyl)-5-(5-methylpyridin-3-yl)-4H-1,2,4-triazol-3-yl)-1-hydroxy-1-(5-methylpyrimidin-2-yl)propane-2-sulfonamide]", "values": [{"measurement": "Isolated Heart Assay dP/dtmax(%)", "setting": "[2]; ex vivo isolated perfused rat heart, contractility, percent change over vehicle", "result": 19, "unit": "%"}, {"measurement": "Isolated Heart Assay dP/dtmin(%)", "setting": "[2]; ex vivo isolated perfused rat heart, relaxation (lusitropic), percent change over vehicle", "result": 25, "unit": "%"}, {"measurement": "MI Rat Model dP/dtmax(%)", "setting": "[3]; in vivo heart failure (MI) rat, acute administration for 30 min", "result": 15, "unit": "%"}]}
{"molecule": "COc1cccc(OC)c1-n1c(NS(=O)(=O)[C@@H](C)[C@H](C)c2ncc(C)cn2)nnc1-c1cncc(C#N)c1", "note": "[Example 833.0, (2S,3R)-N-(5-(5-cyano-3-pyridinyl)-4-(2,6-dimethoxyphenyl)-4H-1,2,4-triazol-3-yl)-3-(5-methyl-2-pyrimidinyl)-2-butanesulfonamide]", "values": [{"measurement": "EC50", "setting": "[1]", "result": 0.07, "unit": "µM"}]}
{"molecule": "COc1cccc(OC)c1-n1c(NS(=O)(=O)[C@@H](C)[C@H](C)c2ncc(C)cn2)nnc1-c1cncc(C(=O)O)c1", "note": "[Example 834.0, 5-(4-(2,6-dimethoxyphenyl)-5-((((1S,2R)-1-methyl-2-(5-methyl-2-pyrimidinyl)propyl)sulfonyl)amino)-4H-1,2,4-triazol-3-yl)-3-pyridinecarboxylic acid]", "values": [{"measurement": "EC50", "setting": "[1]", "result": 1.07, "unit": "µM"}]}
{"molecule": "apelin-13", "values": [{"measurement": "in vitro affinity to the APJ receptor relative to apelin-36", "setting": "[4]", "result": "~3.5", "unit": "fold"}, {"measurement": "in vitro activity compared among apelin-36, apelin-17 and apelin-13", "setting": "[5]", "result": "approximately equipotent"}]}
{"molecule": "pyr apelin-13", "values": [{"measurement": "positive cooperativity (IP1 accumulation)", "setting": "[6]", "result": "no positive cooperativity observed"}, {"measurement": "positive cooperativity on AT1R (IP1 accumulation)", "setting": "[7]", "result": "induces the positive cooperativity on the AT1R"}]}
